# Laboratory results published in patent publication US20180185347A1, “TETRAHYDROCYCLOPENTA[B]INDOLE COMPOUNDS AND PHOSPHODIESTERASE INHIBITORS FOR THE TREATMENT OF THE SIGNS AND SYMPTOMS OF BHP” (Transition Therapeutics (Ireland 2) Limited, priority 2016, published 2018).
# Assay: Dog toxicology program: exposure (AUC0-24)
# Settings: male, in vivo
structure (smiles),measurement,setting,value
"CC(C)OC(=O)N[C@H]1Cc2c(n(Cc3ccccn3)c3ccc(C#N)cc23)C1 [compound of Formula II, (S)-(7-cyano-4-pyridin-2-ylmethyl-1,2,3,4-tetrahydro-cyclopenta[b]indol-2-yl)-carbamic acid isopropyl ester]",AUC(0-t),3 mg/kg/day,3640 ng·h/mL
same,AUC(0-t),150 mg/kg/day,53000 ng·h/mL
